{
  "sequences": {"note": "Sequences of proteins named here, by UniProt entry; tags and fusion partners are left off. A change or cut given only in a name is not applied to a line headed by its entry.", "UniProt P14416, whole entry": "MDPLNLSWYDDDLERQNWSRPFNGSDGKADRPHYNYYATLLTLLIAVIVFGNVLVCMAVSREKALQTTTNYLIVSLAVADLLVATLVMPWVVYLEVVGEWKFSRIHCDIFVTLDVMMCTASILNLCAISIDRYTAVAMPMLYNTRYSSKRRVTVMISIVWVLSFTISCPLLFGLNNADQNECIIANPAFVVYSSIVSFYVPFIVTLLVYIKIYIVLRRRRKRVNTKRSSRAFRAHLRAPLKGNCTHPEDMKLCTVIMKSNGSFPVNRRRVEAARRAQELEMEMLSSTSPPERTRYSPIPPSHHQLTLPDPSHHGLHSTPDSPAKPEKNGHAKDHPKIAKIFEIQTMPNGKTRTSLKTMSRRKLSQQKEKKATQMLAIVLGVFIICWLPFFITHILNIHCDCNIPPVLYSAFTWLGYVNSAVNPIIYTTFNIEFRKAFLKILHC", "UniProt P35462, whole entry": "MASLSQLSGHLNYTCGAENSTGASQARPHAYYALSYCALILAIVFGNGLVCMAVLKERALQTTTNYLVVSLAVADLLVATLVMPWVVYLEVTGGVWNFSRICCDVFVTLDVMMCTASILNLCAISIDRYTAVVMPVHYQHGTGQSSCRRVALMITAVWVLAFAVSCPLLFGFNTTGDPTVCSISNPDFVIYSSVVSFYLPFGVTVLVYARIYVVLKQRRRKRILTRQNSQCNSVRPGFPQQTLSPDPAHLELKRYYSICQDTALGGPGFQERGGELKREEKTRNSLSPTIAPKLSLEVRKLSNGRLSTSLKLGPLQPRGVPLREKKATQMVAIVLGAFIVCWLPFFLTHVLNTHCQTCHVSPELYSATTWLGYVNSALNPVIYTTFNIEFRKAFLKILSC"},
  "source": "patent US10577361B2",
  "about": "“Dopamine D3 receptor antagonists having a morpholine moiety” (Indivior UK Limited, priority 2015, dated 2020)",
  "data": [
    {"molecular_target": "human dopamine receptor type 2, long variant (hD2L) (Homo sapiens (Human), UniProt P14416)", "assay": "[3H]-Spiperone binding assay at hD2 recombinant receptor (CHO-Gα16-hD2L membranes)", "settings": "not given", "experimental": "[^3H]-Spiperone Binding Assay at hD2 Recombinant Receptor CHO cells stably expressing human dopamine receptor type 2, long variant (hD2L), coupled to Gα16 protein (CHO-Gα16-hD2L) were re-suspended in 20 mM HEPES, 2 mM EDTA (pH 7.4), homogenised and centrifuged at 40,000 g (20 min, 4° C.). After re-suspension, homogenization and centrifugation as above, the final pellet was re-suspended in 20 mM HEPES, 100 mM NaCl, 10 mM MgCl2, 1 mM EDTA (pH 7.4) and aliquots were kept at −80° C. [^3H]-Spiperone Binding experiments were performed in 96 deep-well polypropylene plates in 50 mM Tris/HCl, 120 mM NaCl, 5 mM KCl, 5 mM MgCl2 (pH 7.4). […] Displacement was performed in the presence of 0.08 nM [^3H]-Spiperone. The reaction was initiated by the addition of membrane suspension (2 μg of protein for CHO-hD2 membranes) and lasted for 120 min at 23° C. in a final volume of 1000 μl. Non specific binding (NSB) was determined in the presence of 0.1 μM Spiperone. The binding reaction was stopped by rapid filtration through GF/B filterplates pre-soaked in 0.5% polyetylenimmine (PEI) using a Packard cell harvester. After washing with ice-cold 0.9% NaCl, the plate was left to dry before the addition of Microscint 20 (50 μl/well, PerkinElmer). Radioactivity was counted with a TopCount (PerkinElmer). […] Saturation binding experiments were performed similar to the competition binding experiments using a radioligand concentrations ranging from 0.011 to 3.0 nM. […] Is Clozapine selective for the dopamine D4 receptor? […] Real-time analysis of dopamine: antagonist interactions at recombinant human D2long receptor upon modulation of its activation state. Brit. J.", "values": [
      {"smiles": "Cc1ncoc1-c1nnc(SCCCN2CCOC(c3ccc(Br)cc3)C2)n1C", "note": "(stereo not drawn) [Example 38, 2-(4-bromophenyl)-4-(3-{[4-methyl-5-(4-methyl-1,3-oxazol-5-yl)-4H-1,2,4-triazol-3-yl]sulfanyl}propyl)morpholine]", "D2 p Ki": 4.82},
      {"smiles": "Cn1c(SCCCN2CCOC(c3ccc(C(F)(F)F)cc3F)C2)nnc1-c1ccc(C(N)=O)cc1", "note": "(stereo not drawn) [Example 35]", "D2 p Ki": 4.84},
      {"smiles": "Cn1c(SCCCN2CCOC(c3ccc(C(F)(F)F)cc3)C2)nnc1-c1cnccn1", "note": "(stereo not drawn) [Example 19, 4-(3-{[4-methyl-5-(pyrazin-2-yl)-4H-1,2,4-triazol-3-yl]sulfanyl}propyl)-2-[4-(trifluoromethyl)phenyl]morpholine]", "D2 p Ki": 4.99},
      {"smiles": "Cn1c(SCCCN2CCOC(c3ccc(C(F)(F)F)cc3)C2)nnc1-c1ccc(C(N)=O)nc1", "note": "(stereo not drawn) [Example 20, 5-{4-methyl-5-[(3-{2-[4-(trifluoromethyl)phenyl]morpholin-4-yl}propyl)sulfanyl]-4H-1,2,4-triazol-3-yl}pyridine-2-carboxamide]", "D2 p Ki": 4.61}
    ]},
    {"molecular_target": "human dopamine type 3 receptor (hD3) (Homo sapiens (Human), UniProt P35462)", "assay": "[3H]-Spiperone binding assay at hD3 recombinant receptor (CHO-hD3 membranes)", "settings": "pKi only estimated to be accurate to about ±0.3-0.5", "experimental": "[^3H]-Spiperone Binding Assay at hD3 and hD4 recombinant receptors CHO cells transiently transfected with human dopamine type 3 or 4 receptors (CHO-hD3 or CHO-hD4, respectively), were re-suspended in 20 mM HEPES, 2 mM EDTA (pH 7.4), homogenised and centrifuged at 40,000 g (20 min, 4° C.). After re-suspension, homogenization and centrifugation as above, the final pellet was re-suspended in 20 mM HEPES, 100 mM NaCl, 10 mM MgCl2, 1 mM EDTA (pH 7.4) and aliquots were kept at −80° C. [^3H]-Spiperone Binding experiments were performed in 96 deep-well polypropylene plates in 50 mM Tris/HCl, 120 mM NaCl, 5 mM KCl, 5 mM MgCl2 (pH 7.4). Compounds of invention were serially diluted in DMSO at 100 fold final concentrations in the assay (1% DMSO final in the assay). Displacement was performed in the presence of 0.3 nM [^3H]-Spiperone. The reaction was initiated by the addition of membrane suspension (4 μg and 12 μg of protein for CHO-hD3- and CHO-hD4 membranes, respectively) and lasted for 90 or 100 min (for hD3 or hD4 membranes, respectively) at 23° C. in a final volume of 500 μl. Non specific binding (NSB) was determined in the presence of 1 μM Spiperone. […] Radioactivity was counted with a TopCount (PerkinElmer). Data were analysed by non-linear regression analysis using GraphPad Prism 5.0 (GraphPad Software). […]", "values": [
      {"smiles": "Cc1ncoc1-c1nnc(SCCCN2CCOC(c3ccc(C(F)(F)F)cc3)C2)n1C", "note": "(stereo not drawn) [Example 7, 4-(3-{[4-methyl-5-(4-methyl-1,3-oxazol-5-yl)-4H-1,2,4-triazol-3-yl]sulfanyl}propyl)-2-[4-(trifluoromethyl)phenyl]morpholine]", "D3 p Ki": 6.9},
      {"smiles": "Cc1ncoc1-c1nnc(SCCCN2CCO[C@H](c3ccc(C(F)(F)F)cc3)C2)n1C", "note": "(single isomer, unassigned) [Example 9, (2R or 2S)-4-(3-{[4-methyl-5-(4-methyl-1,3-oxazol-5-yl)-4H-1,2,4-triazol-3-yl]sulfanyl)}propyl)-2-[4-(trifluoromethyl)phenyl]morpholine]", "D3 p Ki": 7.76}
    ]}
  ]
}
